Key:
Type in all cases: cell-based, human
Conditions in all cases: 4 days, agent plus 4-OHT versus agent alone
MDAMB453 = test: WST-1 proliferation assay of MDAMB453 cells
T-47D cells = test: WST-1 proliferation assay of T-47D cells
From the text: The human breast cancer cell line T-47 D (ACC 739) was obtained from DSMZ as frozen cell pellet (Deutsche Sammlung von Mikroorganismen und Zellkulturen). Originally, these cells T-47D cell line was isolated by Keydar et al. (1979) from a pleural effusion obtained from a patient with an infiltrating ductal carcinoma of the breast T-47D is expressing the ER, PR and AR but lacking HER2/neu overexpression. Thus, T-47D may represent a cell line representative for the most prevalent breast cancer subtype.
T-47D were grown routinely in RPMI medium containing 10% fetal calf serum (FCS) and antibiotics in a humidified incubator at 36.5° C./90% humidity and 5% CO2. Cells were maintained in cell culture bottles for less than 20 passages before the individual experiments were conducted; cell suspensions were cultured 96 well plates and exposed at various concentrations of the individual agents; incubation time varied as indicated in the respective figures. WST-1 assay was used to monitor proliferation at 450 nm wavelength.
Growth was as compared to control using WST-1 assay (monitoring absorption at 450 nm wavelength as indicator for cell viability compared to growth control).
T-47D cells were grown routinely in RPMI medium containing 10% fetal calf serum (FCS) and antibiotics in a humidified incubator at 36.5° C./90% humidity and 5% CO2. […]

ZR-75-1 = test: WST-1 proliferation assay of ZR-75-1 cells

Structure (SMILES): C[C@]12CC[C@@H]3c4ccc(O)cc4C[C@@H](CCCCCCCCC[S+]([O-])CCCC(F)(F)C(F)(F)F)[C@H]3[C@@H]1CC[C@@H]2O (stereo partly drawn) [Fulvestrant]
- SE1 (synergistic effect, A anti-cancer compound alone / A combination) (MDAMB453): 2.9
- SE1 (synergistic effect, A anti-cancer compound alone / A combination) (T-47D cells): 1.7
- SE1 (synergistic effect, A anti-cancer compound alone / A combination) (ZR-75-1): 2.1

Structure (SMILES): C=C1C[C@@H]2[C@H](CC[C@]3(C)C(=O)CC[C@@H]23)[C@@]2(C)C=CC(=O)C=C12 [Exemestane]
- SE1 (synergistic effect, A anti-cancer compound alone / A combination) (MDAMB453): 3.6
- SE1 (synergistic effect, A anti-cancer compound alone / A combination) (ZR-75-1): 1.4

Structure (SMILES): CC(=O)O[C@@]12CO[C@@H]1C[C@H](O)[C@@]1(C)C(=O)[C@H](O)C3=C(C)[C@@H](OC(=O)[C@H](O)[C@@H](NC(=O)OC(C)(C)C)c4ccccc4)C[C@@](O)([C@@H](OC(=O)c4ccccc4)[C@H]21)C3(C)C [Docetaxel]
- SE1 (synergistic effect, A anti-cancer compound alone / A combination) (MDAMB453): 1.2
